Ab-14 heavy chain CDR variants: yeast mating affinities

Data: MIT Lincoln Laboratory AlphaSeq set, Engelhart et al. 2022, doi:10.1038/s41597-022-01779-4, as distributed in FLAb.

Binding partner: SARS-CoV-2 spike HR2 peptide, sequence PDVDLGDISGINAS.

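The parent was found by panning a naive human phage display library on the peptide. The library (AAYL49) carries one to three amino acid substitutions per variant, with no insertions or deletions. The assay is AlphaSeq: two haploid yeast populations carry antibody and antigen on their surface. The frequency of each diploid, read from paired DNA barcodes, reflects how well the two displayed proteins bind. A regression on co-assayed BCL2-family reference pairs converts the normalised counts of each replicate to an apparent Kd. Each pool was mated in three replicate cultures.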

Parent: Ab-14, a human scFv built as VH, the linker GGGGSGGGGSGGGGS, VL. Only the CDRs of the heavy chain vary.
VH: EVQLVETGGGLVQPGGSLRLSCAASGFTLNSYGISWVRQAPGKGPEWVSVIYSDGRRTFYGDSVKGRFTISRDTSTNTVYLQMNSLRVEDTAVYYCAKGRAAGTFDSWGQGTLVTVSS
VL: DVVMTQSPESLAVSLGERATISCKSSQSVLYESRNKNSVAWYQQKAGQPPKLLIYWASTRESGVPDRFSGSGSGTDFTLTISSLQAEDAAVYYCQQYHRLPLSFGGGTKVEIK

Variants are written as CDR1, CDR2 and CDR3 of the heavy chain (limits as in the source). Parent: GFTLNSYGIS, VIYSDGRRTFYGDSVK, GRAAGTFDS. Every variant below is changed at G55 of the VH (sequential numbering). Numbers give log10(Kd / nM), so 0 is 1 nM and 3 is 1 µM. Smaller is tighter. An entry "ND" has no value in the source: the pair was not observed among the diploids in that replicate. This suggests poor binding but is not conclusive.

CDR-H1,CDR-H2,CDR-H3,"replicates, log10 nM"
GFTLNSIGIS,VIYSDHRRTFYGDSVK,GRAADTFDS,ND / ND / ND
GFTLNSYGIS,VIYSDMRRTFYGDSVK,ARAAGTFLS,ND / ND / ND
GFTLNSYGIS,VIYSLWRRTFYGDSVK,GRAAGTFDS,5.70 / ND / 3.70
AFTLNSYGIS,VIYSDERRTFEGDSVK,GRAAGTFDS,ND / ND / ND
GWTLNSYGIS,VIYSDVRRTFYGDSWK,GRAAGTFDS,3.51 / ND / ND
GFTLNSMGIS,VIYSDAHRTFYGDSVK,GRAAGTFDS,ND / ND / ND
GFTLNSYGIS,VIYSDTRRTFYGDSVK,GRANGTFDS,ND / ND / ND
GFTLNSYGIS,VIYSDKRRTYYGDSVW,GRAAGTFDS,ND / 5.12 / 4.96
GFTLNSYGGS,VIYSIPRRTFYGDSVK,GRAAGTFDS,ND / ND / ND
GFTLNSYGIW,NIYSDNRRTFYGDSVK,GRAAGTFDS,ND / ND / ND
GFTLNSYGIA,VIYSDSRRTFYGDSVK,GRAAETFDS,ND / 3.37 / ND
GFTLNSYGIS,VIYQDNRRTFYGDSVK,GRAQGTFDS,3.44 / 4.01 / ND
GFTLNSYGIS,VIYSDFRRTNYGNSVK,GRAAGTFDS,ND / 3.79 / 5.75
GFTLNSYGIS,VIYSDVRRTFYGDSVK,SRAAGPFDS,ND / 3.54 / 4.64
GFTLNSYGPS,VIYSDSRRTFRGDSVK,GRAAGTFDS,3.34 / 3.57 / ND
GFTLNSYGDG,VIYSDSRRTFYGDSVK,GRAAGTFDS,ND / ND / ND
GFTLNSYGIS,VIYSDDRRTFYGDFVK,GHAAGTFDS,ND / ND / ND
GFTLNSYGIS,VIYSDDQRTFYGDSVK,GRRAGTFDS,ND / ND / ND
GFSLNSYGIT,VIYSDMRRTFYGDSVK,GRAAGTFDS,ND / ND / ND
GFTLNSYGIS,VIYSDLRRTFYGDSVK,GRAAGTGDS,ND / ND / 3.17
GFTLNSYGIS,VIYSDCRRTFNGDSVK,GRAAGTFDS,ND / ND / ND
GFTWNSPGIS,VIYSDQRRTFYGDSVK,GRAAGTFDS,ND / ND / ND
GFTLNSYKIS,VIYSDDRRTFYGDSVK,GRAAGTHDS,4.10 / ND / ND
GFTLNPYGIS,VIYSDTRRTFYGDSVK,GRAAGTFDS,ND / ND / ND
GFTHNSYGIS,VIYSDVRRNFYGDSVK,GRAAGTFDS,ND / ND / ND
GTTLNSYGIS,VIYSDTRRTFYGDSVK,VRAAGTFDS,2.46 / 3.17 / 2.51
GFNLNSYGIK,VIYSDERRTFYGDSVK,GRAAGTFDS,ND / ND / ND
GFTLNSYGIS,VIYSDIRFTFYGDSVK,GRAACTFDS,ND / 3.60 / 5.15
GFTLNSYGIS,VIYSDERRTFYGDSVK,GREAGTFDR,5.91 / 2.89 / ND
GFTLNLYGIS,VIYSDNRRTFYGDSVK,GYAAGTFDS,ND / ND / ND
GFTLNSYGIS,VIYGDHRRTFYGDSVK,GRAAGQFDS,ND / ND / ND
GFTLNSYGIS,VIYSDMRYDFYGDSVK,GRAAGTFDS,ND / ND / ND
GYTLNSYGIS,VIYQDYRRTFYGDSVK,GRAAGTFDS,ND / 3.07 / ND
GFTLNSYGIS,VIYSDIVRTFYGDSVK,GRAAGTWDS,ND / ND / ND
GKTLNSYGIS,VIYSDWRRTFYGDIVK,GRAAGTFDS,ND / ND / ND
GFTLNSYGIS,RIYSDPRRTFYGDSVK,GRAAWTFDS,ND / ND / ND
GFTLNSYGIS,DDYSDFRRTFYGDSVK,GRAAGTFDS,ND / ND / ND
GFTLNSYGIS,VIYSDFRRTGYGDSVK,GRLAGTFDS,ND / ND / ND
GFTLNSYGIS,VIYSDQRRTFYGDSVK,WRAAGTFDS,ND / ND / ND

A selection of 6 entries from above:

CDR-H1,CDR-H2,CDR-H3,"replicates, log10 nM"
GFTLNSYGIS,VIYSDTRRTFYGDSVK,GRANGTFDS,ND / ND / ND
GFTLNSYGIS,VIYSDERRTFYGDSVK,GREAGTFDR,5.91 / 2.89 / ND
GFTLNSYGIS,VIYSDMRYDFYGDSVK,GRAAGTFDS,ND / ND / ND
GFTLNSYGIS,VIYQDNRRTFYGDSVK,GRAQGTFDS,3.44 / 4.01 / ND
GFTLNSYGDG,VIYSDSRRTFYGDSVK,GRAAGTFDS,ND / ND / ND
GYTLNSYGIS,VIYQDYRRTFYGDSVK,GRAAGTFDS,ND / 3.07 / ND

Three control strains display no target. For library AAYL49, 15% of the pairings with them gave a signal, with a median of 4.06 and one signal in twenty below 2.83, so weak values seen in few replicates may be background.